# From ChEMBL document CHEMBL4359902, “Development of novel chromeno[4,3-c]pyrazol-4(2H)-one derivates bearing sulfonylpiperazine as antitumor inhibitors targeting PI3Kα” (Eur J Med Chem, 2019)
# Sequences of proteins named here, by UniProt entry; tags and fusion partners are left off.
# UniProt P42336, whole entry: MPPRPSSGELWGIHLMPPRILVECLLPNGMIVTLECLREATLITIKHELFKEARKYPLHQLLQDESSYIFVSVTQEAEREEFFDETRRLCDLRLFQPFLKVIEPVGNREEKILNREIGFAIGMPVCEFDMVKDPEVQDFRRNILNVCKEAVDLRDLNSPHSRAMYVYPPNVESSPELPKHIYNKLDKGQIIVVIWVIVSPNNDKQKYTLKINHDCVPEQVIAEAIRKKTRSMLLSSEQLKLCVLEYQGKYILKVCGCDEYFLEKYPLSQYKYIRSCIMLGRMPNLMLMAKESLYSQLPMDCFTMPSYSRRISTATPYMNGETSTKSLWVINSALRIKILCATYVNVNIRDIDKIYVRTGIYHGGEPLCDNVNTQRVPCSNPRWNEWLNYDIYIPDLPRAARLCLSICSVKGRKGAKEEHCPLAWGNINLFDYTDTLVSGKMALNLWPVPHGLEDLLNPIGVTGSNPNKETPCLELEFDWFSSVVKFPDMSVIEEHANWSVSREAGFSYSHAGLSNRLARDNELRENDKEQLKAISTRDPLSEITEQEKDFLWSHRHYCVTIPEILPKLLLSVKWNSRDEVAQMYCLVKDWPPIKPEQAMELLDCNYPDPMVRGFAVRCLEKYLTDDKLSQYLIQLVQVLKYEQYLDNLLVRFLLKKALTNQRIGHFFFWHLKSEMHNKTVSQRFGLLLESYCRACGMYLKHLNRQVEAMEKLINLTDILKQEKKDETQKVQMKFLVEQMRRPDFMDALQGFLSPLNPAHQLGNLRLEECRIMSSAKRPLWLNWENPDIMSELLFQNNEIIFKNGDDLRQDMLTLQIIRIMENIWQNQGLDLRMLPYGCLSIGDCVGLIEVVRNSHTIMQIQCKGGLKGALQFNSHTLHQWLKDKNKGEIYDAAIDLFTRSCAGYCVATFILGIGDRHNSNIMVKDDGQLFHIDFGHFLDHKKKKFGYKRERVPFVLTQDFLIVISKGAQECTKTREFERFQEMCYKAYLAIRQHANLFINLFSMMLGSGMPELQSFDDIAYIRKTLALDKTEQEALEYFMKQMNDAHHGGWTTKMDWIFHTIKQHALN
# Key:
# [1] = target: Phosphatidylinositol 4,5-bisphosphate 3-kinase catalytic subunit alpha isoform (Homo sapiens, UniProt P42336); assay: Potency index, ratio of LY294002 IC50 to compound IC50 for inhibition of PI3Kalpha (unknown origin) using diC8-PI(4,5)P2 as substrate incubated for 3 hrs by fluorescence polarization assay
# [2] = species: Homo sapiens; assay: Selectivity index, ratio of IC50 for PI3Kbeta (unknown origin) to IC50 for PI3Kalpha (unknown origin) using diC8-PI(4,5)P2 as substrate
# [3] = species: Homo sapiens; assay: Selectivity index, ratio of IC50 for PI3Kdelta (unknown origin) to IC50 for PI3Kalpha (unknown origin) using diC8-PI(4,5)P2 as substrate
# [4] = species: Homo sapiens; assay: Selectivity index, ratio of IC50 for PI3Kgamma (unknown origin) to IC50 for PI3Kalpha (unknown origin) using diC8-PI(4,5)P2 as substrate
structure (smiles),measurement,setting,value
O=c1oc2ccccc2c2nn(CN3CCN(S(=O)(=O)c4ccc(Cl)c([N+](=O)[O-])c4)CC3)cc12,Ratio IC50,[1],53
same,Ratio IC50,[2],13
same,Ratio IC50,[3],13
same,Ratio IC50,[4],9
